{"source": "patent US6413946B1", "about": "“Composition for treatment of diabetes and treatment of diabetes” (Meiji Seika Kaisha, Ltd., priority 1997, dated 2002)", "origin": "cited, not measured here", "conditions": "orally administered; cited from earlier work", "data": [{"substance": "sodium metavanadate", "values": [{"measurement": "Toxicity relative to vanadyl sulfate (VOSO4)", "value": "about 10 times"}]}]}
